{"sequences": {"note": "By UniProt entry, the sequences of proteins in these tests, tags left out. Residues count along the entry.", "UniProt O60896, 24-148": "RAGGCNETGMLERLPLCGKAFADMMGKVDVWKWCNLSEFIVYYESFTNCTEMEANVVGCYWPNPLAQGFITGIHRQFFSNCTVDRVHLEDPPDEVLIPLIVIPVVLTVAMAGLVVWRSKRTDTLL", "UniProt Q16602, 23-461": "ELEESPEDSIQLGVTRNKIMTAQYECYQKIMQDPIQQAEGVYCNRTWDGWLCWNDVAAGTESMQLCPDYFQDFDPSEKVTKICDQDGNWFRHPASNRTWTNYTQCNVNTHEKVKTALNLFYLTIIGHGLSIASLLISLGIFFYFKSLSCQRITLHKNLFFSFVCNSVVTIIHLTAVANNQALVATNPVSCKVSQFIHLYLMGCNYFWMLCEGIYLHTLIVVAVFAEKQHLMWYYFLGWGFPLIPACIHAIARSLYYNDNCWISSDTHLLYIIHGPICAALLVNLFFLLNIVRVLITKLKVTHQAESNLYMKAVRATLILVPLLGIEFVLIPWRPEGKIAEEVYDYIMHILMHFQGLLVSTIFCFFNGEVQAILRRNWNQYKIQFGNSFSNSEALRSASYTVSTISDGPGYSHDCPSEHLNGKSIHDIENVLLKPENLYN"}, "source": "paper PMC8006142", "about": "(Journal of Medicinal Chemistry, 2021)", "target": "AM2 receptor (Homo sapiens, UniProt O60896+Q16602)", "assay": "TR-FRET cAMP accumulation, inhibition of agonist-induced cAMP in AM2 receptor-overexpressing cells", "type": "cell-based", "settings": "Table 1, different CLR-binding fragments", "description": "The ability of the compounds to inhibit cAMP production induced by an EC50 concentration of the maximum agonist activation (information previously published[34]) in GPCR/RAMP-overexpressing cells (i.e., AM2, CGRP cells) was evaluated using cAMP accumulation assays. Each compound was tested at 8 full-log concentrations (10^–11–10^–5 M) including a negative control (blank). The total cAMP was measured using the TR-FRET LANCE cAMP detection kit (PerkinElmer, AD0264), as described previously.[34] Briefly, frozen cells ([…]) were thawed and prepared in warm stimulation buffer (1× HBSS, 5 mM N-(2-hydroxyethyl)piperazine-N′-ethanesulfonic acid (HEPES), 0.5 mM IBMX, and 0.1% bovine serum albumin (BSA)). Alexa Fluor conjugated anti-cAMP (1:100 concentration) was then added to the cell suspension, and cells were plated (2500 cells, 6 μL) in a 384-well white opaque microtiter plate (OptiPlates, PerkinElmer, 6007299). […] Subsequently, a 12 μL detection mix (Europium-Chelate streptavidin/biotinylated cAMP) was added to stop the reaction and induce cell lysis. TR-FRET was detected after an hour of incubation by an EnSight multimode Plate reader (PerkinElmer) at 320/340 nm excitation and 615/665 nm emission. Data were normalized to agonist only and blank (stimulation buffer only) wells as 0 and 100% cAMP inhibition, respectively. […]"}
{"smiles": "CN1C(=O)NC(=O)C12Cc1ccc(NC(=O)CN(Cc3ccccc3)C(=O)C(C)(C)C)cc1C2", "note": "(stereo not shown) [Compound 1, reference compound]", "values": [{"measurement": "AM2 pIC50", "result": 5.9}]}
